Assay results as given in the NIST ThermoML archive (doi:10.1016/j.jct.2017.03.004).

Assay: activity coefficient (dimensionless); of the first substance listed, at infinite dilution; xn = mol fraction of the nth substance listed
Conditions: 101.33 kPa, Liquid, Chromatography, x1 = 0

CCCCOCCCC [dibutyl ether] + N#C[N-]C#N.OCCC[n+]1ccccc1
Conditions	activity coefficient
318.15 K	268
328.15 K	254
338.15 K	244
348.15 K	234
358.15 K	225
368.15 K	216
